Literature values as cited in patent US7067489B2, “Hematopoietic stimulation” (Point Therapeutics, Inc., priority 1998, dated 2006).

Protein sequences, listed by entry. Tags and fused reporters are not part of them.
UniProt P27487, whole entry, species assumed: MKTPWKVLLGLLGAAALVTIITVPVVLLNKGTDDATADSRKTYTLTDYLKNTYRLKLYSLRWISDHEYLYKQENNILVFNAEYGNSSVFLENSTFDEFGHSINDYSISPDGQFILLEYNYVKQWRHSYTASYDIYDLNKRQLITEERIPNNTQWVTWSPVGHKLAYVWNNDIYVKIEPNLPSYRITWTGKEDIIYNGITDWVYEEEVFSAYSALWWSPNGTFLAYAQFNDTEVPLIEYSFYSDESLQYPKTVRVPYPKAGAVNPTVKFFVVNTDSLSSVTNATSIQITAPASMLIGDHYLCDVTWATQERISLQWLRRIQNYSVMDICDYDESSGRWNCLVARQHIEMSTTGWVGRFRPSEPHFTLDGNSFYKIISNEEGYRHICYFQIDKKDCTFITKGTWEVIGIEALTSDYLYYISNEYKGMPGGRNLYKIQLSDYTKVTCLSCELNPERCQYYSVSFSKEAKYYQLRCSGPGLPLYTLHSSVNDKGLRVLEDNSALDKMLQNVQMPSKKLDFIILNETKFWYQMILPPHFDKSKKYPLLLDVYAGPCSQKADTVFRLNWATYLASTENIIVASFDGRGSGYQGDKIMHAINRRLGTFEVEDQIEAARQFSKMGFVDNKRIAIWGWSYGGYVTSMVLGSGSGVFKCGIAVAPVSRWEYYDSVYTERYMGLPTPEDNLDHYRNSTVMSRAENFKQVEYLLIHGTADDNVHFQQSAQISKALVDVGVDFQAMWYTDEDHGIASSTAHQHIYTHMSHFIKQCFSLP

Target: DPP-IV (CD26) (Homo sapiens, UniProt P27487)
Conditions: background statement; cited from earlier work

CC(C)[C@H](N)C(=O)N1CCC[C@H]1B(O)O [PT-100, valine-prolineboronic acid]
inhibition of DPP-IV activity: potent inhibitor
